Our source for the e/n selectivity, Ki and i/n selectivity values is patent US9951014B2, “Mammalian and bacterial nitric oxide synthase inhibitors” (Northwestern University, priority 2014, dated 2018).

What all share (assay): Oxyhemoglobin NO capture assay with purified NOS
Common to all, as to format: biochemical

For one experiment, the target named is bovine eNOS (Bos taurus (Bovine), UniProt P29473).
For the next experiment, the target named is human nNOS (Homo sapiens (Human), UniProt P29475). Particulars: Table 9; read-out: Ki H nNOS.
In the next experiment the target is murine iNOS (Mus musculus (Mouse), UniProt P29477).
For the next experiment, the target named is rat nNOS (Rattus norvegicus (Rat), UniProt P29476). The note with it: Table 9.

The compound `CNCCN(C)c1cc(C#N)cc(CCc2cc(C)cc(N)n2)c1` [Compound 19c, 3-(2-(6-Amino-4-methylpyridin-2-yl)ethyl)-5-(methyl(2-(methylamino)ethyl)amino)benzonitrile] showed an e/n selectivity on bovine eNOS of 1040. In addition, at human nNOS, the Ki was 55 nM. The i/n selectivity on murine iNOS came to 153.
For `CNCCN(C)c1cncc(CCc2cc(C)cc(N)n2)c1` [Compound 14b, N^1-(5-(2-(6-Amino-4-methylpyridin-2-yl)ethyl)pyridin-3-yl)-N^1,N^2-dimethylethane-1,2-diamine], the Ki on rat nNOS was determined as 17 ± 1.6 nM.
`CNCCN(C)c1cc(F)cc(CCc2cc(C)cc(N)n2)c1` [Compound 19b, N^1-(3-(2-(6-Amino-4-methylpyridin-2-yl)ethyl)-5-fluorophenyl)-N^1,N^2-dimethylethane-1,2-diamine]: at bovine eNOS, the e/n selectivity is listed as 903. For the same compound, the i/n selectivity on murine iNOS amounted to 166.

What is called Ki is a measure of affinity in units of concentration, obtained from inhibition or displacement.
